# Publication PMC12597549 (Drug Metabolism and Disposition, 2025)
# Residue numbers refer to the chain shown, from its start.
# Assays:
# UGT2B7^268Tyr = target: T1, UGT2B7^268Tyr (Homo sapiens, UniProt P16662); experiment: biochemical
# T1 sequence (P16662 24-529): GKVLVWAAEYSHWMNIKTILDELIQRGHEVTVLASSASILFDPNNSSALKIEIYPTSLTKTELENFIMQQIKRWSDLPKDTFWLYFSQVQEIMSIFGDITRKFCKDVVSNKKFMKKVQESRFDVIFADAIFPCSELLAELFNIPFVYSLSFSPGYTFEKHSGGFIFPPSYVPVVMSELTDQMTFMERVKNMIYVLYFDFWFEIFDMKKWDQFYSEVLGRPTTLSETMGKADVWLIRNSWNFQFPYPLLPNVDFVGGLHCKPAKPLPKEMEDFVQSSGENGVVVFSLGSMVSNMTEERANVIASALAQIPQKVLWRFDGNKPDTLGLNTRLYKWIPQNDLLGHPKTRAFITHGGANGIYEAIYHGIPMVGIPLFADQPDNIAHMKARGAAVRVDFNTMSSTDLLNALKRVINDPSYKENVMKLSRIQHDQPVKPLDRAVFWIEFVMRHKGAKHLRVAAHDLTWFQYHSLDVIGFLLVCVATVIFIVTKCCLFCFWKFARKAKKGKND
# UGT2B7^268His [1] = target: T2, UGT2B7^268His (Homo sapiens, UniProt P16662, Y268H); experiment: Inhibition of hydromorphone glucuronidation (HM3G formation) by cannabinoids in rUGT2B7^268His microsomes; assay type: biochemical; design: expressed in transfected cells; microsomal membrane fraction
# T2 sequence (P16662 24-529 Y268H): T1 sequence (P16662 24-529) with Y245H
# UGT2B7^268His [2] = target: T2, UGT2B7^268His; conditions: CLint ratio relative to UGT2B7^268His microsomes
# [3] = human, in vivo; cited from earlier work
# [4] = cited from earlier work
smiles,measurement,setting,value
"C=C(C)[C@@H]1CCC(C)=C[C@H]1c1c(O)cc(CCCCC)cc1O [CBD, cannabidiol]",IC50,UGT2B7^268Tyr,0.15 ± 0.02 µM
same,IC50,UGT2B7^268His [1],0.074 ± 0.01 µM
CN1CC[C@]23c4c5ccc(O)c4O[C@H]2C(=O)CC[C@H]3[C@H]1C5 [hydromorphone],Relative Activity,UGT2B7^268His [2],1.0
same,"fe, fraction excreted unchanged in urine",[3],"g CLR was calculated based on fe, fraction excreted unchanged in urine (0.07; Dilaudid package insert)."
same,potency relative to morphine (times more potent),[4],5–10 times
